The chains behind the UniProt entries cited, without tags or fusion partners. Where a name states a change or a piece, a line headed by the entry shows the natural chain unless it says otherwise.
UniProt P22086: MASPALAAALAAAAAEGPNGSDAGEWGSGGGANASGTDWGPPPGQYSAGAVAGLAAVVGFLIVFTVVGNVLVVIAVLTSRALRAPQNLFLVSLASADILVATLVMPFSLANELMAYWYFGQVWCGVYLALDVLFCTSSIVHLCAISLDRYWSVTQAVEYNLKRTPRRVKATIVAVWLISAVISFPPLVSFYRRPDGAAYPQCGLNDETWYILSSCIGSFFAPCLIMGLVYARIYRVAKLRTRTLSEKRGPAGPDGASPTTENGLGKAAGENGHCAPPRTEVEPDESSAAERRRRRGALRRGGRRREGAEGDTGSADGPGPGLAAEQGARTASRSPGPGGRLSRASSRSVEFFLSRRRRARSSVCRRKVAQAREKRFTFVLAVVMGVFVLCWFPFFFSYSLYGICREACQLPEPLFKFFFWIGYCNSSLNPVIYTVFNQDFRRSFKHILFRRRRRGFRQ
UniProt P19328: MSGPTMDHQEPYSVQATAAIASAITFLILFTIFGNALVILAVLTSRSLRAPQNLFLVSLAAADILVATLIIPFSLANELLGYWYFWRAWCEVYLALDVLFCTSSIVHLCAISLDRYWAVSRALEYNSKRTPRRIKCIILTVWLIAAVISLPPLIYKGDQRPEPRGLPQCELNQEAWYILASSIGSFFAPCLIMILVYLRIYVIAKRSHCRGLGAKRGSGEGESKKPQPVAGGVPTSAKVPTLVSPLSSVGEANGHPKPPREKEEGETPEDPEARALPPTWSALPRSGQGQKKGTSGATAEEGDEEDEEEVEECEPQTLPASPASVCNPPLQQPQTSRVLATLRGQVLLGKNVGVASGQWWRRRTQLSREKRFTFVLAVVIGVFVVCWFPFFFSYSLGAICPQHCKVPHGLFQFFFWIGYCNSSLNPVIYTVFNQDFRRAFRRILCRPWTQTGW
UniProt P22909: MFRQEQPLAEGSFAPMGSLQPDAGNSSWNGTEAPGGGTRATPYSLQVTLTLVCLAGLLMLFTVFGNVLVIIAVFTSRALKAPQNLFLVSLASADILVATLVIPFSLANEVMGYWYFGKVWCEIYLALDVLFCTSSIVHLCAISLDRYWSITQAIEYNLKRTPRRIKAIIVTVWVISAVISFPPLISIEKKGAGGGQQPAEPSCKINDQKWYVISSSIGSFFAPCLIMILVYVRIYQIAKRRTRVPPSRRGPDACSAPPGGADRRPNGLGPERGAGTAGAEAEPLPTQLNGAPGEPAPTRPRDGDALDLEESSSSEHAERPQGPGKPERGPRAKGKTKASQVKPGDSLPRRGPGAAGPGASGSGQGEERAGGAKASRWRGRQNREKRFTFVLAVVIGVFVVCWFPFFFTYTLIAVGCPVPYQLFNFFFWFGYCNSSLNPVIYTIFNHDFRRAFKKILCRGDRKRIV

In ChEMBL document CHEMBL1122942, “Conformationally defined adrenergic agents. 1. Design and synthesis of novel alpha 2 selective adrenergic agents: electrostatic repulsion based conformational prototypes” (J Med Chem, 1985):

Molecular target: Adrenergic receptor alpha-2 (Rattus norvegicus, UniProt P22086+P19328+P22909)
Experiment: Binding affinity towards alpha-2 adrenergic receptor in rat using [3H]rauwolscine as radioligand
In short: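 Male Sprague-Dawley rat cerebral cortex membranes (50-150 µg/mL protein) in 50 mM Tris-HCl pH 7.7 with [3H]rauwolscine. Incubated 2 h at 4 °C; phentolamine 10^-5 M defined nonspecific binding. At least four concentrations from 10^-10 to 10^-3 M, each in duplicate. Bound ligand was filtered and counted by scintillation.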

Brc1c(NC2=NCCN2)ccc2nccnc12 [BRIMONIDINE]
Ki: 30 nM
